Results on 1 compound are retold here after patent US6806276B2, “2-oxoquinoline compounds and pharmaceutical uses thereof” (Japan Tobacco Inc., priority 1999, dated 2004).

Amino acid sequences for entries named in this document (tags omitted).
UniProt P34972, whole entry: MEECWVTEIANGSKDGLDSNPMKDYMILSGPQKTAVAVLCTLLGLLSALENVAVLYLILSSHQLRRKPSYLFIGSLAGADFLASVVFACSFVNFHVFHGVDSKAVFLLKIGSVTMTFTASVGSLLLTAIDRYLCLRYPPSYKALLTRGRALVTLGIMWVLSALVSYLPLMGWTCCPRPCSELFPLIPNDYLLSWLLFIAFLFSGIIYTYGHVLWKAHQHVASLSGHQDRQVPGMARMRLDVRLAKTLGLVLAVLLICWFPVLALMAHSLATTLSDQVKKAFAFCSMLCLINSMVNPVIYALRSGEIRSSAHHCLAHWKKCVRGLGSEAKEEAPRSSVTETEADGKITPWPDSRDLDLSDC

This assay has as its target T1, human peripheral type cannabinoid receptor (hCB2) (Homo sapiens, UniProt P34972).
T1 construct: expressed in transfected cells; host or cells: CHO cells
Put plainly: Binding assay (in vitro), [3H]Win55212-2 displacement, membrane fractions of human CB2-CHO. The note with it: hCB2 expressed in CHO cells, [3H]Win55212-2 2 nM, 30° C. 90 minutes; read-out: Ki value Peripheral type receptor (S).

The structures appear in SMILES notation.

A word on the Ki: it is the dissociation constant of the complex between target and ligand, obtained from inhibition or displacement. Take `CCOc1c(OC)ccc2cc(C(=O)NCCc3ccncc3)c(=O)[nH]c12` [Example 3-6, 8-ethoxy-7-methoxy-2-oxo-1,2-dihydroquinoline-3-carboxylic acid (2-pyridine-4-ylethyl)amide]: the Ki turned out to be 0.02 nM.
